Laboratory results published in PMC6706415.

Experiments:
[1] = molecular target: casein coated-gold nanoparticles (βCas AuNPs); test: co-sedimentation; 6.25 µM βCas or equivalent βCas AuNPs incubated with 2-1137 µM Aβm or Aβo for 48 h at 37 °C in deionized water; centrifuged at 17,300 x g for 30 min; protein in the pellet quantified by BCA
[2] = molecular target: casein coated-gold nanoparticles (βCas AuNPs); test: thermogravimetric analysis (TGA) of centrifuged pellets; pellets of βCas or βCas AuNPs incubated with Aβ as for the BCA assay; held at 80 °C for 30 min, scanned 80-800 °C at 10 °C/min under nitrogen

| maximum binding capacity (βCas AuNPs, 6.25 µM βCas equivalent) [1] [µM] | Aβ concentration beyond which the TGA curve no longer changed (binding saturation) [2] [mM] | Substance |
| --- | --- | --- |
| 152 | 0.3 | amyloid beta 42 monomers (from UniProt P05067 672-713) (peptide) |
| 191 |  | amyloid beta 42 oligomers (from UniProt P05067 672-713) (peptide) |
